ChEMBL document CHEMBL1148364, “Structure-based design, synthesis, and structure-activity relationship studies of novel non-nucleoside adenosine deaminase inhibitors” (J Med Chem, 2004)

What follows are compounds tested against T1, Adenosine deaminase (Homo sapiens, UniProt P00813).
T1 sequence (P00813 whole entry): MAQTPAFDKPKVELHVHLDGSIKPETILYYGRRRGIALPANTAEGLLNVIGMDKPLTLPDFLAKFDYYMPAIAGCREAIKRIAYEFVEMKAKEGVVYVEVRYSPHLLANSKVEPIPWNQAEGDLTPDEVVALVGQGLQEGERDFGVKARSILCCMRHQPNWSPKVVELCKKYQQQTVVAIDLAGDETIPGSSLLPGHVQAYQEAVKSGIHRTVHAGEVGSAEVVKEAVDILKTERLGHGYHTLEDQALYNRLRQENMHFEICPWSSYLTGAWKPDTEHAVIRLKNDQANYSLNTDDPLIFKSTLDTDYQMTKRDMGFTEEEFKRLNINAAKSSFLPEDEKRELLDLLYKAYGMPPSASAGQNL

Structure (SMILES)	Ki [nM]
NC(=O)c1cn([C@@H](CO)CCn2ccc3ccc(NC(=O)NCc4ccccc4)cc32)cn1	7.5
NC(=O)c1cn([C@@H](CO)CCn2ccc3ccc(NC(=O)CCCCc4ccccc4)cc32)cn1	11
NC(=O)c1cn([C@@H](CO)CCn2ccc3ccc(NC(=O)CCc4ccccc4)cc32)cn1	30
